Assay results from PubChem BioAssay (NCI).
Some tests of the compounds listed are not included; inactive here does not mean inactive elsewhere.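 The compound was tested at five concentrations on cells cultured in 96-well plates, with a 48-hour exposure period. Here, GI50 denotes the concentration required for 50% inhibition of growth. Definition used: TGI = concentration required for complete inhibition of growth.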

Assays:
Experiment in all cases: growth of human tumour cells (NCI), 48 h
[1] = system: M14 melanoma
[2] = system: SNB-75 CNS
[3] = system: SK-MEL-5 melanoma
[4] = system: OVCAR-8 ovarian
[5] = system: 786-0 renal
[6] = system: NCI-H23 lung
[7] = system: A498 renal
[8] = system: NCI-H460 lung
[9] = system: SNB-19 CNS
[10] = system: MDA-N
[11] = system: MOLT-4 leukemia
[12] = system: HCT-116 colon
[13] = system: RXF 393 renal
[14] = system: MDA-MB-435
[15] = system: U251 CNS
[16] = system: NCI-H522 lung
[17] = system: OVCAR-4 ovarian
[18] = system: OVCAR-3 ovarian
[19] = system: TK-10 renal
[20] = system: MALME-3M melanoma
[21] = system: SW-620 colon
[22] = system: HOP-62 NSCLC
[23] = system: BT-549 breast
[24] = system: CAKI-1 renal
[25] = system: SF-539 CNS
[26] = system: PC-3 prostate
[27] = system: SK-MEL-2 melanoma
[28] = system: KM12 colon

For `C=C(C)C#CC(O)(C(=O)OC1CN2CCC1CC2)C1CCCCC1` (stereo unspecified), which GI50 [1] is on record?
The GI50 was greater than 100 µM.

What about the TGI [1] of the same compound?
Its TGI is greater than 100 µM.

What about the GI50 [2] of the same compound?
The GI50 was greater than 100 µM.

What about the TGI [2] of the same compound?
The TGI was greater than 100 µM.

And the GI50 [3]?
Its GI50 is greater than 100 µM.

And the TGI [3]?
The TGI was greater than 100 µM.

And the GI50 [4]?
Its GI50 is greater than 100 µM.

What about the TGI [4] of the same compound?
Its TGI is greater than 100 µM.

And the GI50 [5]?
The GI50 was greater than 100 µM.

What about the TGI [5] of the same compound?
Its TGI is greater than 100 µM.

What about the GI50 [6] of the same compound?
The GI50 was greater than 100 µM.

What about the TGI [6] of the same compound?
Its TGI is greater than 100 µM.

What about the GI50 [7] of the same compound?
The GI50 was greater than 100 µM.

And the TGI [7]?
Its TGI is greater than 100 µM.

And the GI50 [8]?
Its GI50 is greater than 100 µM.

What about the TGI [8] of the same compound?
The TGI was greater than 100 µM.

What about the GI50 [9] of the same compound?
Its GI50 is greater than 100 µM.

What about the TGI [9] of the same compound?
Its TGI is greater than 100 µM.

What about the GI50 [10] of the same compound?
Its GI50 is greater than 100 µM.

And the TGI [10]?
The TGI was greater than 100 µM.

What about the GI50 [11] of the same compound?
Its GI50 is greater than 100 µM.

What about the TGI [11] of the same compound?
The TGI was greater than 100 µM.

What about the GI50 [12] of the same compound?
The GI50 was 12.4 µM.

And the TGI [12]?
The TGI was greater than 100 µM.

And the GI50 [13]?
Its GI50 is 87.6 µM.

And the TGI [13]?
Its TGI is greater than 100 µM.

And the GI50 [14]?
Its GI50 is greater than 100 µM.

And the TGI [14]?
The TGI was greater than 100 µM.

What about the GI50 [15] of the same compound?
The GI50 was greater than 100 µM.

And the TGI [15]?
The TGI was greater than 100 µM.

What about the GI50 [16] of the same compound?
Its GI50 is greater than 100 µM.

And the TGI [16]?
The TGI was greater than 100 µM.

And the GI50 [17]?
Its GI50 is greater than 100 µM.

And the TGI [17]?
The TGI was greater than 100 µM.

What about the GI50 [18] of the same compound?
Its GI50 is greater than 100 µM.

And the TGI [18]?
Its TGI is greater than 100 µM.

And the GI50 [19]?
Its GI50 is greater than 100 µM.

What about the TGI [19] of the same compound?
Its TGI is greater than 100 µM.

And the GI50 [20]?
The GI50 was greater than 100 µM.

What about the TGI [20] of the same compound?
Its TGI is greater than 100 µM.

And the GI50 [21]?
The GI50 was greater than 100 µM.

What about the TGI [21] of the same compound?
The TGI was greater than 100 µM.

What about the GI50 [22] of the same compound?
Its GI50 is greater than 100 µM.

What about the TGI [22] of the same compound?
Its TGI is greater than 100 µM.

What about the GI50 [23] of the same compound?
Its GI50 is greater than 100 µM.

And the TGI [23]?
Its TGI is greater than 100 µM.

And the GI50 [24]?
The GI50 was greater than 100 µM.

And the TGI [24]?
The TGI was greater than 100 µM.

What about the GI50 [25] of the same compound?
The GI50 was greater than 100 µM.

And the TGI [25]?
The TGI was greater than 100 µM.

What about the GI50 [26] of the same compound?
The GI50 was greater than 100 µM.

What about the TGI [26] of the same compound?
The TGI was greater than 100 µM.

And the GI50 [27]?
The GI50 was greater than 100 µM.

And the TGI [27]?
The TGI was greater than 100 µM.

What about the GI50 [28] of the same compound?
The GI50 was greater than 100 µM.

What about the TGI [28] of the same compound?
Its TGI is greater than 100 µM.
